Amino acid sequences for entries named in this document (tags omitted). Residues count along the entry.
UniProt P54764, 29-209 limits assumed: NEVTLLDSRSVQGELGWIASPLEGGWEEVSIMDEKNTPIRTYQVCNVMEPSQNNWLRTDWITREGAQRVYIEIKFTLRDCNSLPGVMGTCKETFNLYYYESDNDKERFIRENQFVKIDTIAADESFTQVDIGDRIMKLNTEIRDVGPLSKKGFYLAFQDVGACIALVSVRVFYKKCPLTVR

According to publication PMC9404653, “EphA4 targeting agents protect motor neurons from cell death induced by amyotrophic lateral sclerosis -astrocytes” (iScience, 2022):

Legend:
EphA4 = conditions: primary cortical neurons; ref Wu et al., 2017; cited from earlier work
EphA4-LBD = EphA4-LBD (Homo sapiens, UniProt P54764); experiment: 2D [13C,1H] NMR chemical shift perturbation of 13Cε-Met labeled EphA4-LBD; conditions: weight average 1H/13C chemical shift perturbation, 20 μM EphA4-LBD, 298 K
[1] = Aqueous solubility by 1H NMR; conditions: determined by 1H NMR
[2] = system: motor neurons co-cultured with sALS astrocytes; experiment: Postmortem sALS astrocyte:motor neuron co-culture, motor neuron survival; conditions: 123C4 100 μM added at motor neuron seeding, 5 days co-culture
SOD1(G93A) mouse model = conditions: ref Wu et al., 2017; cited from earlier work

SMILES: COc1ccc2[nH]cc(CCNC(=O)[C@H](Cc3ccncc3)NC(=O)[C@H](Cc3ccc(Cl)cc3)NC(=O)[C@H](Cc3c[nH]c4ccc(O)cc34)NC(=O)CCCN)c2c1
- EphA4 phosphorylation (agonism) (EphA4): acts as an agonist
- Δδ Met 60 (EphA4-LBD): + (+ < 0.05 ppm)
- Δδ Met 164 (EphA4-LBD): + (0.1 ppm < + < 0.2 ppm)
- Aqueous solubility [1]: ∼100 μM
- Motor neuron survival [2]: prevented sALS astrocyte-mediated motor neuron toxicity
- Disease onset (SOD1(G93A) mouse model): not disease onset
- Survival (SOD1(G93A) mouse model): improved survival
